The text below walks through data of article PMC8125063 (International Journal of Molecular Sciences, 2021).

Data set [1] concerns the molecule itself. As to the kind of experiment: native gel or EMSA; Native 9% PAGE; 200 mM Glycine-NaOH pH 9.0, 1 mM MgCl2, with or without 100 µM CoCl2 and/or 10 µM AMP in gel and running buffer; 3 h at 254 V.
Data set [2] concerns the molecule itself. Put plainly: SEC; HiLoad 16/600 Superdex 200 pg; 50 mM HEPES-NaOH pH 7.5, 150 mM KCl, 1 mM MgCl2, with or without 100 µM CoCl2 and/or 10 µM AMP; 0.5 mg protein loaded, 1 mL/min. (SEC sorts molecules by how far they enter the pores of the column.)

B1: wild-type human Fructose 1,6-bisphosphatase 2 (Fbp2) (enzyme, UniProt O00757 1-339, looked up)
chain: MTDRSPFETDMLTLTRYVMEKGRQAKGTGELTQLLNSMLTAIKAISSAVRKAGLAHLYGIAGSVNVTGDEVKKLDVLSNSLVINMVQSSYSTCVLVSEENKDAIITAKEKRGKYVVCFDPLDGSSNIDCLASIGTIFAIYRKTSEDEPSEKDALQCGRNIVAAGYALYGSATLVALSTGQGVDLFMLDPALGEFVLVEKDVKIKKKGKIYSLNEGYAKYFDAATTEYVQKKKFPEDGSAPYGARYVGSMVADVHRTLVYGGIFLYPANQKSPKGKLRLLYECNPVAYIIEQAGGLATTGTQPVLDVKPEAIHQRVPLILGSPEDVQEYLTCVQKNQAGS
notes: Fructose 1,6-bisphosphatase 2 (muscle Fbp), human, wild type; Mainly a tetramer in SEC and native PAGE; a small amount of dimers is seen in native PAGE without ligands; also called muscle Fbp; source: expressed and purified as described in [8] with minor modifications (cellulose phosphate column)
For the protein B1, the stoichiometry N (commonly the number of molecules, sites or subunits per partner or assembly) was found to be 2 in data set [1] and 4 in data set [2].
